Test results: patent US20240409598A1, “PEPTIDE INHIBITORS OF INTERLEUKIN-23 RECEPTOR” (Janssen Biotech, Inc., priority 2021, published 2024)

Target: T1, IL-23R (Homo sapiens, UniProt Q5VWK5)
T1 construct: host or cells: HEK293
T1 sequence (Q5VWK5 24-629): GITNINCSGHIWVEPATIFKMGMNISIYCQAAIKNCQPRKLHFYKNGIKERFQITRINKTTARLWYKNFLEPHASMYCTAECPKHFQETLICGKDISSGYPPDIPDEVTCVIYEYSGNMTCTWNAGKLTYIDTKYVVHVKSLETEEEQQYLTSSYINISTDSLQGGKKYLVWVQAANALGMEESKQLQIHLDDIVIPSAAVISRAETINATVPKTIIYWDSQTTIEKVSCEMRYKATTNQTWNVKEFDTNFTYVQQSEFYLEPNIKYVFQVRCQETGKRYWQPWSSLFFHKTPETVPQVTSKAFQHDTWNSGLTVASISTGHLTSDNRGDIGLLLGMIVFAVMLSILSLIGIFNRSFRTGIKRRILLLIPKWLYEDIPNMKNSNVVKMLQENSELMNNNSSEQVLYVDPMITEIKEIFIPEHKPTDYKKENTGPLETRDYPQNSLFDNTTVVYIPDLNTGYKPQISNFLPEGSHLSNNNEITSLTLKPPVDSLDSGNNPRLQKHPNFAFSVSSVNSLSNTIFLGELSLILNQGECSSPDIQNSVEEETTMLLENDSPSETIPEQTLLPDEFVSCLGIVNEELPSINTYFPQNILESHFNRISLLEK
Assay: IL23R Reporter Assay
Type: cell-based
Conditions: HEK293 cells containing IL-23R, IL-12Rβ1 and STAT-inducible luciferase reporter; 10 ng/ml IL-23; 5 h; table titled IL-23 Binding Data

Substance | IC50 [nM]
MeCO-r-Abu (1)-N-T-W-K(Ac)-aMeC (1)-AEF-2Nal-THP-E-N-3Pya-Sar-CONH2 [compound 478] | 1.3
MeCO-r-Pen-N-T-7MeW-K(Ac)-Pen-AEF-2Nal-THP-E-N-5MePyridinAla-Sar-CONH2 [compound 345] | 5
